Laboratory results reported in publication PMC8081182, “A novel preparative method for nanoparticle albumin-bound paclitaxel with high drug loading and its evaluation both in vitro and in vivo” (PLoS ONE, 2021).

Target: HSA (Homo sapiens, UniProt P02768)
Assay: Circular dichroism analysis of HSA secondary structure
Assay type: physicochemical
Conditions: CD 180-260nm, HSA 0.8mg/mL

HSA: human serum albumin, bought from Baxter AG; blank protein reference in CD analysis
HSA secondary structure: Antiparallel: 19.40% | HSA secondary structure: Beta-Turn: 17.00% | HSA secondary structure: Helix: 23.20% | HSA secondary structure: Rndm. Coil: 38.90% | HSA secondary structure: Total Sum: 104.50% | HSA secondary structure: parallel: 5.90%
